This is a selection; strong and weak results do not stand in their true shares. Activity calls are given as the source filed them. Rule as the data show it: active = inhibition above about 22%; inactive = the rest.
Test: cytotoxicity in IEC-6 intestinal epithelial cells, primary screen, cytotoxicity control for KLF5 inhibitor project, cell-based, luminescence (AID 1825);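 also: 0% = plate median of test compound wells and 100% = cytotoxic reference compound wells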
Conditions: IEC-6 cytotoxicity, luminescence viability; at 5 µM; hits give high values

Structure (SMILES)	inhibition
Cc1ccc(OP(=O)(Nc2ccccn2)Oc2ccc(C)cc2)cc1	inactive: -2.8%

Source: PubChem BioAssay AID1825 (The Scripps Research Institute Molecular Screening Center, 2009)
